Values of other authors as cited in US20080102121A1, “COMPOSITIONS COMPRISING NANOPARTICULATE MELOXICAM AND CONTROLLED RELEASE HYDROCODONE” (Elan Pharma International Limited, priority 1998, published 2008).

Experiments:
[1] = system: COX-2/COX-1; conditions: cited from earlier work
[2] = cited from earlier work

Q: Which COX-2/COX-1 inhibition ratio [1] does the source give for “4-hydroxy-2-methyl-N-(5-methyl-2-thiazolyl)-2-H-1,2-benzothiazine-3-carboxamide 1,1-dioxide [Meloxicam]” here?
A: 0.09

Q: And the solubility in methanol ([2]; methanol)?
A: very slightly soluble

Q: And the solubility in water ([2]; water)?
A: practically insoluble
